# Data from patent publication US5418162A, “Serotonin transporter CDNA” (Duke University, priority 1992, dated 1995).
# Chains of the proteins cited; added tags and fusions are not shown.
# UniProt P31652, whole entry: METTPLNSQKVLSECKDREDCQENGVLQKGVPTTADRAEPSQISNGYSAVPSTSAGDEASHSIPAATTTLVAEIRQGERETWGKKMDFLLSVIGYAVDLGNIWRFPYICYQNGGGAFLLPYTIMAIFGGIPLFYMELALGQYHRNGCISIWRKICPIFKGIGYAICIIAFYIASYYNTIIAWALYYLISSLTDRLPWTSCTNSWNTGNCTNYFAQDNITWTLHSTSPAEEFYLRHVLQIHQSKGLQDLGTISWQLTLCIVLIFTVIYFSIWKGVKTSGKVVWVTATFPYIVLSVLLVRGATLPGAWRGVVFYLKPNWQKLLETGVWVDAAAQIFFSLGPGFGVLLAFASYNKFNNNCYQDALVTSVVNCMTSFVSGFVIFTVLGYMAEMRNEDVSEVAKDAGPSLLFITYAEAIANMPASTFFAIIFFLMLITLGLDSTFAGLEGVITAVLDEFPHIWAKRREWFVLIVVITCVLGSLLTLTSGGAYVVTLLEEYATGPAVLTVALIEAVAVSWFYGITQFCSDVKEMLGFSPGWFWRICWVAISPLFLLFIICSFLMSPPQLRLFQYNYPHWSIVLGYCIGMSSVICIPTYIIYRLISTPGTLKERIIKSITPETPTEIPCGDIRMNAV
# Molecular target: rat 5HT transporter (rSERT) (Rattus norvegicus, UniProt P31652)
# Assay: [3H]5HT transport assay in HeLa cells transfected with BS4E-10 cDNA (rSERT)
# Assay type: cell-based
row,Compound,antagonism of 5HT transport (in words)
1,CN(C)CCCC1(c2ccc(F)cc2)OCc2cc(C#N)ccc21 (stereo not drawn) [citalopram],selectively and potently antagonized
2,CNCCC(Oc1ccc(C(F)(F)F)cc1)c1ccccc1 (stereo not drawn) [fluoxetine],selectively and potently antagonized
3,Fc1ccc([C@@H]2CCNC[C@H]2COc2ccc3c(c2)OCO3)cc1 [paroxetine],selectively and potently antagonized
